System: HEK-293T NF-kB luciferase reporter, luminescence counterscreen
Test: inhibitors of NF-kB luciferase reporter, HEK-293T, dose response, counter-screen for BCR NF-kB inhibitor project, luminescence, B-cell screen hits (AID 489022)

CNC(=O)c1cc(Oc2ccc(NC(=O)Nc3ccc(Cl)c(C(F)(F)F)c3)cc2)ccn1
IC50: 3.42 µM

Source: PubChem BioAssay AID489022 (Sanford-Burnham Center for Chemical Genomics, 2010)
